uPA generation – inhibitors of cell surface uPA generation; hit rate 0.31% among 330,000; cell surface uPA generation assay, qHTS; Potency, µM (doses to about 38.3 µM), without a hit: at the highest dose activity change, negative = inhibition, usual class: inhibitors; AID 540303; active = well fitted inhibition curve with a large enough effect; inconclusive = small, poorly fitted or top-dose-only effect; inactive = no such curve, though single readings can be large or run the other way; tested in mouse RAW 264.7 cells; note: potency is the fitted concentration of half-maximal effect; % is set by controls: 0 for no effect and ±100 for the full control effect; nearly all actives have a fitted effect of over 55% in size
TDP1 cell noCPT – qHTS for Inhibitors of human tyrosyl-DNA phosphodiesterase 1 (TDP1): qHTS in cells in absence of CPT; AID 686978, 2013; hit rate 15% among 420,000; Potency, µM (titrated, usually from 46.2 µM), for inactives: at the top dose activity change, negative = growth inhibition, usual class: inhibitors; DT40 Tdp1-/- hTDP1 cells, no CPT, ATP luminescence, 48 h; note: potency is the fitted concentration of half-maximal effect; % is set by controls: 0 for no effect and ±100 for the full control effect; nearly all actives have a fitted effect of over 55% in size
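Seeded 400 DT40-hTDP1 cells/well (vehicle DMSO, no 20 nM CPT); pinned compounds; ≥48 hr at 37 °C; CellTiter-Glo luminescence as viability measure.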
TDP1 block – blocks human tyrosyl-DNA phosphodiesterase 1. recombinant TDP1, AlphaScreen DNA substrate cleavage. AID 485290. Q9NUW8. Potency, µM (top dose mostly 130 µM), without a hit: at the top dose activity change, negative = inhibition, hits mostly inhibitors. hit rate 0.28% among 350,000; note: potency is the fitted concentration of half-maximal effect; % is set by controls: 0 for no effect and ±100 for the full control effect; nearly all actives have a fitted effect of over 40% in size
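Tdp1 1 nM final; 15 min RT w/ cpd; substrate 15 nM, 5 min; beads 10 ug/ml, 10 min; AlphaScreen read. Neg ctrl: no enzyme.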
miR-21 reporter – raises the signal of a miR-21 reporter | HeLa miR-21 FLuc reporter, luciferase, 48 h | Potency, µM (doses to about 38.3 µM), without a hit: at the top dose reporter change, positive = more light | 340,000 tested, under 10 active | AID 2288; active = well fitted rising curve with a large enough effect; inconclusive = small, poorly fitted or top-dose-only effect; inactive = no such curve, though single readings can be large or run the other way;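 note: % of control where 0% means no effect; miR-21 action dims this reporter so a rising signal means less miR-21 action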
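Compounds were titrated across several concentrations (up to approximately 40 uM) and incubated 48 hours with HeLa miR-21-FLuc reporter cells (miR-21 target sequence downstream of FLuc, endogenous miR-21). Readout was firefly luciferase luminescence after lytic detection reagent.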
DT40 TDP1 CPT – growth inhibition of DT40 Tdp1-/-;hTDP1 cells with camptothecin (screen for TDP1 inhibitors); chicken DT40 Tdp1-/-;hTDP1 cells + 20 nM CPT, ATP luminescence, 48 h; Potency, µM (doses to about 46.2 µM), for inactives: at the highest dose activity change, negative = growth inhibition, actives largely listed as inhibitors; hit rate 12% among 420,000; note: potency is the fitted concentration of half-maximal effect; % is set by controls: 0 for no effect and ±100 for the full control effect; nearly all actives have a fitted effect of over 55% in size
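Chicken DT40 Tdp1-/- cells stably complemented with human TDP1 were seeded at 400 cells/well in medium containing 20 nM camptothecin, exposed to pin-transferred compounds, and grown at 37 °C for at least 48 hr. Viability was read as ATP luminescence.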
Starred values were filed as active, the others as inactive. Rows were chosen to be rich in hits. Some 16% of all compounds tested hit in one or more screens of this group. Unless noted, calls come from the whole dose curve; as a rule, active = well fitted curve in the direction sought with a large enough effect; inconclusive = small, poorly fitted or top-dose-only effect, or another doubt; inactive = no such curve, though single readings can be large; an effect the other way counts as inactive or inconclusive.

For COCC1CCCN(Cc2cn(Cc3ccccc3)nc2-c2cc3ccccc3o2)C1 (configuration not stated) the results were uPA generation -7%, TDP1 cell noCPT inconclusive, TDP1 block -3%, miR-21 reporter -3% and DT40 TDP1 CPT 26µM*.
Screening COCC1CCN(Cc2cn(Cc3ccccc3)nc2-c2cc3ccccc3o2)CC1 returned uPA generation -12%, TDP1 cell noCPT -25%, TDP1 block -2%, miR-21 reporter -3% and DT40 TDP1 CPT inconclusive.
`COC(=O)C1CCN(Cc2cn(Cc3ccccc3)nc2-c2cc3ccccc3o2)CC1` gave uPA generation -12%, TDP1 cell noCPT 26µM*, TDP1 block 3%, miR-21 reporter -9% and DT40 TDP1 CPT inconclusive.
Cc1ccc2c(CC(=O)OC3CCOC3=O)coc2c1 (configuration not stated) was read as uPA generation 5%, TDP1 cell noCPT -3%, TDP1 block 2%, miR-21 reporter 0% and DT40 TDP1 CPT 5%.
`CCN(C)c1ccc(/C=N\n2nnnc2N)cc1` gave uPA generation -18%, TDP1 cell noCPT 5.8µM*, TDP1 block 50µM*, miR-21 reporter -28% and DT40 TDP1 CPT 7.3µM*.
For CCN(CC)c1ccc(/C=N/n2nnnc2N)c(O)c1 the results were uPA generation -13%, TDP1 cell noCPT 16µM*, TDP1 block -1%, miR-21 reporter -6% and DT40 TDP1 CPT 15µM*.
O=C(O)c1cc(S(=O)(=O)N(Cc2ccccc2)c2ccccc2Cl)ccc1Cl was read as uPA generation -18%, TDP1 cell noCPT 6%, miR-21 reporter -1% and DT40 TDP1 CPT 10%.
For C[C@@H](C[C@@H](O)[C@H](O)C(C)(C)O)[C@@H]1CC[C@]2(C)C3=CC[C@H]4C(C)(C)C(=O)CC[C@]4(C)[C@H]3CC[C@@]12C the results were uPA generation -17%, TDP1 cell noCPT 6.5µM*, TDP1 block 5%, miR-21 reporter 1% and DT40 TDP1 CPT 7.3µM*.
`O=c1oc2c3c4c(cc2c2c1CCC2)OCCN4CCC3` gave uPA generation 0%, TDP1 cell noCPT inconclusive, TDP1 block 4%, miR-21 reporter -18% and DT40 TDP1 CPT 18µM*.
For Cc1cccc(N(Cc2cc3ccccc3[nH]c2=O)S(=O)(=O)c2ccccc2)c1 the results were uPA generation 1%, TDP1 cell noCPT inconclusive, TDP1 block -3%, miR-21 reporter -4% and DT40 TDP1 CPT inconclusive.
For COc1ccc(NC(=O)/C(=C/c2cccs2)NC(=O)c2ccco2)cc1 the results were uPA generation 3%, TDP1 cell noCPT -12%, TDP1 block -8%, miR-21 reporter -2% and DT40 TDP1 CPT 3%.
COc1cccc(NC(=O)C(=O)NCC2CCCN2S(=O)(=O)c2cccs2)c1 (configuration not stated) was read as TDP1 cell noCPT -58% and DT40 TDP1 CPT -46%.

Of the compounds above, these have a carbonyl joined to an NH by a bond outside any ring.
For COc1ccc(NC(=O)/C(=C/c2cccs2)NC(=O)c2ccco2)cc1 the results were uPA generation 3%, TDP1 cell noCPT -12%, TDP1 block -8%, miR-21 reporter -2% and DT40 TDP1 CPT 3%.
COc1cccc(NC(=O)C(=O)NCC2CCCN2S(=O)(=O)c2cccs2)c1 (configuration not stated) was read as TDP1 cell noCPT -58% and DT40 TDP1 CPT -46%.

Continuation:
For Cc1cccc(NC(=O)C(=O)NCC2CCCN2S(=O)(=O)c2cccs2)c1 (configuration not stated) the results were TDP1 cell noCPT 8.2µM* and DT40 TDP1 CPT 13µM*.
Cc1cccc(NC(=O)C(=O)NCC2CCCN2S(=O)(=O)c2ccccc2)c1 (configuration not stated) was read as uPA generation -1%, TDP1 cell noCPT 10µM* and DT40 TDP1 CPT 15µM*.
Cc1cccc(NC(=O)C(=O)NCC2CCCN2S(=O)(=O)c2cccs2)c1C (configuration not stated) was read as uPA generation 4%, TDP1 cell noCPT inconclusive and DT40 TDP1 CPT 21µM*.
For CCc1ccc(NC(=O)C(=O)NCC2CCCN2S(=O)(=O)c2cccs2)cc1 (configuration not stated) the results were uPA generation -2%, TDP1 cell noCPT 15µM*, TDP1 block -7% and DT40 TDP1 CPT 18µM*.
